Amino acid sequences for entries named in this document (tags omitted). Residues count along the entry.
UniProt Q12879, 23-1464: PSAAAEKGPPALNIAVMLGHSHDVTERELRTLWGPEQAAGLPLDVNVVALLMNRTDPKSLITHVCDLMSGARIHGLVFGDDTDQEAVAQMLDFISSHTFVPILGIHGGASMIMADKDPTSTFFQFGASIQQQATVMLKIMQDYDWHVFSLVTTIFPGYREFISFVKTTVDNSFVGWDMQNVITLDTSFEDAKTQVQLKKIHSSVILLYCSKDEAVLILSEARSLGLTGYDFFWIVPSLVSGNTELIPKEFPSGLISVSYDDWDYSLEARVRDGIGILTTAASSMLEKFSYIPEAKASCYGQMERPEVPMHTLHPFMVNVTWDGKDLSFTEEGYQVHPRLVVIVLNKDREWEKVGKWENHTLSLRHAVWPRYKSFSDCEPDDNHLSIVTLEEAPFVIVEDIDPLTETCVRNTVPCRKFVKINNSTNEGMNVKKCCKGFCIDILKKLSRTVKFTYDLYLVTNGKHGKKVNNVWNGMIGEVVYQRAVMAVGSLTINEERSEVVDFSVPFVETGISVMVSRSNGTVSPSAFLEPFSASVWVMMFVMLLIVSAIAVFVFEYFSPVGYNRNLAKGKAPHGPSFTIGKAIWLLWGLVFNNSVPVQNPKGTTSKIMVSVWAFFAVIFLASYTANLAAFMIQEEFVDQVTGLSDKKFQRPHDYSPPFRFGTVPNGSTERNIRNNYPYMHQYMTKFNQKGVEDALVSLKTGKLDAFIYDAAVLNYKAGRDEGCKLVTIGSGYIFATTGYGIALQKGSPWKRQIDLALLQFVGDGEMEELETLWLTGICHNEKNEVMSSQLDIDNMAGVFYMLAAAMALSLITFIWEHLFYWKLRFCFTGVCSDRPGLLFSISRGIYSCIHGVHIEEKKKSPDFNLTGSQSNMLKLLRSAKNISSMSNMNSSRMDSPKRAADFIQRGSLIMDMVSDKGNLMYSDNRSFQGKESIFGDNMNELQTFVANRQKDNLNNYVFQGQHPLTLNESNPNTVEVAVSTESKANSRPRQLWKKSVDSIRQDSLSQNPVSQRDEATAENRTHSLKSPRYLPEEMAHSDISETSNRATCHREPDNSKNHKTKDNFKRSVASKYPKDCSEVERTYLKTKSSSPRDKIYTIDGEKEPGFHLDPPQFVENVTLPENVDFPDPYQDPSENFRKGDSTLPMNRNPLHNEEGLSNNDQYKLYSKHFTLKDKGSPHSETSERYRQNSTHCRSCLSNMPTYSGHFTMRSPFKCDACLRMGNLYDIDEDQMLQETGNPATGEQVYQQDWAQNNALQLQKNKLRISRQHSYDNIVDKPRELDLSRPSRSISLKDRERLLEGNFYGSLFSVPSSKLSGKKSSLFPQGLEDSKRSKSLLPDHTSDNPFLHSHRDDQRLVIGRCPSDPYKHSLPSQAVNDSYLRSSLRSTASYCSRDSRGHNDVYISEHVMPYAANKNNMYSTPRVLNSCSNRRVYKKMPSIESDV

According to publication PMC5599507 (Scientific Reports, 2017):

Biological target: T1, NR1/NR2A NMDAR (Homo sapiens, UniProt Q05586+Q12879)
T1 construct: cDNAs for the GRIN1 (NM_007327), GRIN2A (NM_000833.3), GRIN2B (NM_000834.3) and Kir2.1 (NM_000891.2) proteins were purchased from GeneCopoeia; expressed in transfected cells; host or cells: HEK293 cells (ATCC) transduced with BacMam baculovirus (pFastBac-CMV-GW-DEST); virus made in Sf9
Assay: NMDAR-mediated calcium flux assay, NR1/NR2A-transduced HEK293 cells
Type: cell-based
Conditions: MDL105,519-protected cells after washout

dose-dependent activation of NMDAR-mediated calcium flux: No significant dose-dependent activation
SMILES: N[C@@H](CCC(=O)O)C(=O)O [glutamate]
